This note sets out measurements from PubChem BioAssay AID485297 (National Center for Advancing Translational Sciences (NCATS), 2010).

This is a selection; strong and weak results do not stand in their true shares. Some tests of the compounds listed are not included; inactive here does not mean inactive elsewhere. Inconclusive results are not listed. The source made the active and inactive calls. The call rests on the fitted dose curve; in most records, active means well fitted activation curve with a large enough effect; inconclusive means small, poorly fitted or top-dose-only effect; inactive means no such curve, though single readings can be large or run the other way.

A short description of the assay: qHTS Assay for Rab9 Promoter Activators. Further: % of control where 0% means no effect; nearly all actives have a fitted effect of over 60% in size. As to conditions: Huh7 Rab9 promoter-luciferase reporter, luminescence, 24 h; at 9.22 µM (top of the series) unless noted. (In general: Quantitative high-throughput screening tests each substance at several concentrations.)
In the case of `O=C(OC1CN2CCC1CC2)C(CO)(c1ccccc1)c1ccccc1` (centres undefined), the activation, negative = inhibition was inactive: -11.4%. On to `CC(C)Oc1ccc(C(=O)NCC2(N(C)C)CCCCC2)cc1`, for which the activation, negative = inhibition is inactive: 8.06%. With `CN(C)c1cccc(C(=O)NCC2(N(C)C)CCCCC2)c1`, the activation, negative = inhibition was inactive: 6.43%. In the case of `COc1ccc(Br)c(C(=O)NCC2(N3CCCCC3)CCCCC2)c1` it was inactive: -5.79%; in that of `COc1cc(C(=O)NCC2(N(C)C)CCCCC2)c([N+](=O)[O-])cc1OC`, inactive: 4.49%. In the case of `CN(C)C1(CNC(=O)c2ccc(Br)cc2)CCCCC1` it was inactive: -10.9%; in that of `O=C(NCC1(N2CCCCC2)CCCCC1)c1cccc(Cl)c1`, inactive: -4.48%. In the case of `COc1ccc(Cl)cc1C(=O)NCC1(N(C)C)CCCCC1` it was inactive: -0.0604%. With `COc1cccc(C(=O)NCC2(N3CCCCC3)CCCCC2)c1`, the activation, negative = inhibition is inactive: -5.82%. On to `CN(C)C1CCCC1OC(=O)C(O)(c1ccccc1)c1ccccc1` (centres undefined), for which the activation, negative = inhibition is inactive: -1.74%. For the molecule `CN(C)c1ccc(C(=O)NCC2(N(C)C)CCCCC2)cc1`, the activation, negative = inhibition was inactive: -3.27%.

In the case of `Cc1ccccc1C(=O)NCC1(N2CCCCC2)CCCCC1`, the activation, negative = inhibition is inactive: 23.8%.

Take `COc1ccc(C(=O)NCC2(N(C)C)CCCCC2)cc1`: the activation, negative = inhibition is inactive: 12.4%. For `O=C(NCC1(N2CCCCC2)CCCCC1)c1cccc(Br)c1`, the activation, negative = inhibition is inactive: -3.74%. With `Cc1cc(C(=O)NCC2(N3CCCCC3)CCCCC2)ccc1[N+](=O)[O-]`, the activation, negative = inhibition is inactive: -3.58%. For `CCN1CCCC(OC(=O)C2(O)c3ccccc3C=Cc3ccccc32)C1` (centres undefined), the activation, negative = inhibition is inactive: -1.58%.

For `O=C(NCC1(N2CCCCC2)CCCCC1)c1cc(F)c(F)cc1Cl`, the activation, negative = inhibition is inactive: 0.551%. As for `C=CCN1CCN(CCOC(=O)C(O)(c2ccccc2)c2ccccc2)CC1`, the activation, negative = inhibition is inactive: 1%. Take `CN1[C@@H]2CC[C@H]1CC(OC(=O)C(O)(c1ccccc1)c1ccccc1)C2` (some centres undefined): the activation, negative = inhibition was inactive: 3.26%. In the case of `O=C(NCC1(N2CCCCC2)CCCCC1)c1cc([N+](=O)[O-])ccc1Cl` it was inactive: -7%; in that of `Cc1ccc(C(=O)NCC2(N3CCCCC3)CCCCC2)cc1`, inactive: -0.202%.

For the molecule `COc1cc(SC)ccc1C(=O)NCC1(N(C)C)CCCCC1`, the activation, negative = inhibition was inactive: -4.25% [at 1.84 µM].

Turning to `CCN(CC)CC(C)C(C)OC(=O)C(O)(c1ccccc1)c1ccccc1` (centres undefined), the activation, negative = inhibition was inactive: -0.0354%.

On to `CC(C)N1C(=O)CC2(CCN(CCOC(=O)C(O)(c3ccccc3)c3ccccc3)CC2)C1=O`, for which the activation, negative = inhibition was inactive: 2.56%.
